Tested on: CD69 on CD20 positive cells in human whole blood stimulated by anti-IgM
Assay: CD69 Whole Blood Assay
Format: cell-based
Conditions: anti-human IgM stimulation, 20 hours

Work on `Cn1cc(-c2cc(F)cc(N3CCn4c(cc5c4CCCC5)C3=O)c2CO)cc(Nc2ccc(N3CCN(C4COC4)CC3)cn2)c1=O` [Example 210, 2-(5-fluoro-2-(hydroxymethyl)-3-(1-methyl-5-(5-(4-(oxetan-3-yl)piperazin-1-yl)pyridin-2-ylamino)-6-oxo-1,6-dihydropyridin-3-yl)phenyl)-3,4,6,7,8,9-hexahydropyrazino[1,2-a]indol-1(2H)-one] yielded an IC50 of 35 nM.
